Values of other authors in patent publication US20050255156A1, “Reverse-micellar delivery system for controlled transportation and enhanced absorption of agents” (priority 2001, published 2005).

Details: dog, ileocolonic, 10 units/kg, mixed micelles of sodium glycocholate (30 mM) and linoleic acid (40 mM)

insulin
Bioavailability: 1.4%
